Source: the NIST ThermoML archive (doi:10.1016/j.jct.2018.11.010)

Settings: Liquid, Vibrating tube method

## CCCCOCCCC [dibutyl ether]
298.15 K, 100 kPa
  mass density: 763.8 ± 0.7 kg/m3
298.15 K, 1000 kPa
  mass density: 764.7 ± 0.7 kg/m3
298.15 K, 5000 kPa
  mass density: 768.2 ± 0.7 kg/m3
298.15 K, 10000 kPa
  mass density: 772.4 ± 0.7 kg/m3
298.15 K, 15000 kPa
  mass density: 776.4 ± 0.8 kg/m3
298.15 K, 20000 kPa
  mass density: 780.2 ± 0.8 kg/m3
298.15 K, 25000 kPa
  mass density: 783.7 ± 0.8 kg/m3
298.15 K, 30000 kPa
  mass density: 787.3 ± 0.8 kg/m3
298.15 K, 35000 kPa
  mass density: 790.6 ± 0.8 kg/m3
298.15 K, 40000 kPa
  mass density: 793.8 ± 0.8 kg/m3
298.15 K, 45000 kPa
  mass density: 796.9 ± 0.9 kg/m3
298.15 K, 50000 kPa
  mass density: 799.8 ± 0.9 kg/m3
298.15 K, 55000 kPa
  mass density: 802.8 ± 0.9 kg/m3
298.15 K, 60000 kPa
  mass density: 805.6 ± 0.9 kg/m3
298.15 K, 65000 kPa
  mass density: 808.3 ± 0.9 kg/m3
298.15 K, 70000 kPa
  mass density: 811 ± 0.9 kg/m3
298.15 K, 80000 kPa
  mass density: 816.1 ± 1 kg/m3
298.15 K, 90000 kPa
  mass density: 821 ± 1 kg/m3
298.15 K, 100000 kPa
  mass density: 825.5 ± 1 kg/m3
298.15 K, 110000 kPa
  mass density: 830 ± 1.1 kg/m3
298.15 K, 120000 kPa
  mass density: 834.2 ± 1.1 kg/m3
298.15 K, 130000 kPa
  mass density: 838.3 ± 1.1 kg/m3
298.15 K, 140000 kPa
  mass density: 842.1 ± 1.2 kg/m3
313.15 K, 100 kPa
  mass density: 750.7 ± 0.7 kg/m3
313.15 K, 1000 kPa
  mass density: 751.6 ± 0.7 kg/m3
313.15 K, 5000 kPa
  mass density: 755.6 ± 0.7 kg/m3
313.15 K, 10000 kPa
  mass density: 760.1 ± 0.7 kg/m3
313.15 K, 15000 kPa
  mass density: 764.5 ± 0.8 kg/m3
313.15 K, 20000 kPa
  mass density: 768.6 ± 0.8 kg/m3
313.15 K, 25000 kPa
  mass density: 772.3 ± 0.8 kg/m3
313.15 K, 30000 kPa
  mass density: 776.2 ± 0.8 kg/m3
313.15 K, 35000 kPa
  mass density: 779.7 ± 0.8 kg/m3
313.15 K, 40000 kPa
  mass density: 783.1 ± 0.8 kg/m3
313.15 K, 45000 kPa
  mass density: 786.4 ± 0.9 kg/m3
313.15 K, 50000 kPa
  mass density: 789.7 ± 0.9 kg/m3
313.15 K, 55000 kPa
  mass density: 792.7 ± 0.9 kg/m3
313.15 K, 60000 kPa
  mass density: 795.7 ± 0.9 kg/m3
313.15 K, 65000 kPa
  mass density: 798.6 ± 0.9 kg/m3
313.15 K, 70000 kPa
  mass density: 801.4 ± 1 kg/m3
313.15 K, 80000 kPa
  mass density: 806.7 ± 1 kg/m3
313.15 K, 90000 kPa
  mass density: 811.9 ± 1 kg/m3
313.15 K, 100000 kPa
  mass density: 816.7 ± 1.1 kg/m3
313.15 K, 110000 kPa
  mass density: 821.4 ± 1.1 kg/m3
313.15 K, 120000 kPa
  mass density: 825.7 ± 1.1 kg/m3
313.15 K, 130000 kPa
  mass density: 830.1 ± 1.2 kg/m3
313.15 K, 140000 kPa
  mass density: 834.2 ± 1.2 kg/m3
333.15 K, 100 kPa
  mass density: 733 ± 0.7 kg/m3
333.15 K, 1000 kPa
  mass density: 734 ± 0.7 kg/m3
333.15 K, 5000 kPa
  mass density: 738.5 ± 0.7 kg/m3
333.15 K, 10000 kPa
  mass density: 743.6 ± 0.8 kg/m3
333.15 K, 15000 kPa
  mass density: 748.6 ± 0.8 kg/m3
333.15 K, 20000 kPa
  mass density: 753.1 ± 0.8 kg/m3
333.15 K, 25000 kPa
  mass density: 757.5 ± 0.8 kg/m3
333.15 K, 30000 kPa
  mass density: 761.5 ± 0.8 kg/m3
333.15 K, 35000 kPa
  mass density: 765.5 ± 0.8 kg/m3
333.15 K, 40000 kPa
  mass density: 769.2 ± 0.9 kg/m3
333.15 K, 45000 kPa
  mass density: 772.7 ± 0.9 kg/m3
333.15 K, 50000 kPa
  mass density: 776.2 ± 0.9 kg/m3
333.15 K, 55000 kPa
  mass density: 779.6 ± 0.9 kg/m3
333.15 K, 60000 kPa
  mass density: 782.7 ± 0.9 kg/m3
333.15 K, 65000 kPa
  mass density: 785.8 ± 1 kg/m3
333.15 K, 70000 kPa
  mass density: 788.8 ± 1 kg/m3
333.15 K, 80000 kPa
  mass density: 794.6 ± 1 kg/m3
333.15 K, 90000 kPa
  mass density: 800 ± 1.1 kg/m3
333.15 K, 100000 kPa
  mass density: 805.2 ± 1.1 kg/m3
333.15 K, 110000 kPa
  mass density: 810 ± 1.1 kg/m3
333.15 K, 120000 kPa
  mass density: 814.7 ± 1.2 kg/m3
333.15 K, 130000 kPa
  mass density: 819.3 ± 1.2 kg/m3
333.15 K, 140000 kPa
  mass density: 823.5 ± 1.2 kg/m3
353.15 K, 100 kPa
  mass density: 715 ± 0.7 kg/m3
353.15 K, 1000 kPa
  mass density: 716.2 ± 0.7 kg/m3
353.15 K, 5000 kPa
  mass density: 721.3 ± 0.7 kg/m3
353.15 K, 10000 kPa
  mass density: 727.2 ± 0.8 kg/m3
353.15 K, 15000 kPa
  mass density: 732.7 ± 0.8 kg/m3
353.15 K, 20000 kPa
  mass density: 737.8 ± 0.8 kg/m3
353.15 K, 25000 kPa
  mass density: 742.6 ± 0.8 kg/m3
353.15 K, 30000 kPa
  mass density: 747.1 ± 0.8 kg/m3
353.15 K, 35000 kPa
  mass density: 751.4 ± 0.9 kg/m3
353.15 K, 40000 kPa
  mass density: 755.4 ± 0.9 kg/m3
353.15 K, 45000 kPa
  mass density: 759.3 ± 0.9 kg/m3
353.15 K, 50000 kPa
  mass density: 763 ± 0.9 kg/m3
353.15 K, 55000 kPa
  mass density: 766.6 ± 0.9 kg/m3
353.15 K, 60000 kPa
  mass density: 770.1 ± 1 kg/m3
353.15 K, 65000 kPa
  mass density: 773.4 ± 1 kg/m3
353.15 K, 70000 kPa
  mass density: 776.7 ± 1 kg/m3
353.15 K, 80000 kPa
  mass density: 782.7 ± 1 kg/m3
353.15 K, 90000 kPa
  mass density: 788.5 ± 1.1 kg/m3
353.15 K, 100000 kPa
  mass density: 794 ± 1.1 kg/m3
353.15 K, 110000 kPa
  mass density: 799.2 ± 1.2 kg/m3
353.15 K, 120000 kPa
  mass density: 804 ± 1.2 kg/m3
353.15 K, 130000 kPa
  mass density: 808.7 ± 1.2 kg/m3
353.15 K, 140000 kPa
  mass density: 813.3 ± 1.3 kg/m3
373.15 K, 1000 kPa
  mass density: 697.9 ± 0.7 kg/m3
373.15 K, 5000 kPa
  mass density: 703.8 ± 0.7 kg/m3
373.15 K, 10000 kPa
  mass density: 710.5 ± 0.8 kg/m3
373.15 K, 15000 kPa
  mass density: 716.7 ± 0.8 kg/m3
373.15 K, 20000 kPa
  mass density: 722.4 ± 0.8 kg/m3
373.15 K, 25000 kPa
  mass density: 727.7 ± 0.8 kg/m3
373.15 K, 30000 kPa
  mass density: 732.7 ± 0.8 kg/m3
373.15 K, 35000 kPa
  mass density: 737.4 ± 0.9 kg/m3
373.15 K, 40000 kPa
  mass density: 741.9 ± 0.9 kg/m3
373.15 K, 45000 kPa
  mass density: 746.1 ± 0.9 kg/m3
373.15 K, 50000 kPa
  mass density: 750 ± 0.9 kg/m3
373.15 K, 55000 kPa
  mass density: 754 ± 1 kg/m3
373.15 K, 60000 kPa
  mass density: 757.7 ± 1 kg/m3
373.15 K, 65000 kPa
  mass density: 761.2 ± 1 kg/m3
373.15 K, 70000 kPa
  mass density: 764.6 ± 1 kg/m3
373.15 K, 80000 kPa
  mass density: 771.2 ± 1.1 kg/m3
373.15 K, 90000 kPa
  mass density: 777.3 ± 1.1 kg/m3
373.15 K, 100000 kPa
  mass density: 783 ± 1.2 kg/m3
373.15 K, 110000 kPa
  mass density: 788.5 ± 1.2 kg/m3
373.15 K, 120000 kPa
  mass density: 793.6 ± 1.2 kg/m3
373.15 K, 130000 kPa
  mass density: 798.6 ± 1.3 kg/m3
373.15 K, 140000 kPa
  mass density: 803.3 ± 1.3 kg/m3
393.15 K, 1000 kPa
  mass density: 679 ± 0.7 kg/m3
393.15 K, 5000 kPa
  mass density: 685.9 ± 0.8 kg/m3
393.15 K, 10000 kPa
  mass density: 693.5 ± 0.8 kg/m3
393.15 K, 15000 kPa
  mass density: 700.6 ± 0.8 kg/m3
393.15 K, 20000 kPa
  mass density: 706.9 ± 0.8 kg/m3
393.15 K, 25000 kPa
  mass density: 712.8 ± 0.8 kg/m3
393.15 K, 30000 kPa
  mass density: 718.3 ± 0.9 kg/m3
393.15 K, 35000 kPa
  mass density: 723.5 ± 0.9 kg/m3
393.15 K, 40000 kPa
  mass density: 728.3 ± 0.9 kg/m3
393.15 K, 45000 kPa
  mass density: 732.8 ± 0.9 kg/m3
393.15 K, 50000 kPa
  mass density: 737.2 ± 0.9 kg/m3
393.15 K, 55000 kPa
  mass density: 741.4 ± 1 kg/m3
393.15 K, 60000 kPa
  mass density: 745.3 ± 1 kg/m3
393.15 K, 65000 kPa
  mass density: 749.1 ± 1 kg/m3
393.15 K, 70000 kPa
  mass density: 752.8 ± 1.1 kg/m3
393.15 K, 80000 kPa
  mass density: 759.7 ± 1.1 kg/m3
393.15 K, 90000 kPa
  mass density: 766.2 ± 1.1 kg/m3
393.15 K, 100000 kPa
  mass density: 772.3 ± 1.2 kg/m3
393.15 K, 110000 kPa
  mass density: 778.1 ± 1.2 kg/m3
393.15 K, 120000 kPa
  mass density: 783.4 ± 1.3 kg/m3
393.15 K, 130000 kPa
  mass density: 788.6 ± 1.3 kg/m3
393.15 K, 140000 kPa
  mass density: 793.6 ± 1.4 kg/m3

± gives the expanded uncertainty stated by the source.
